Experimental data taken from patent publication US4680304A, “Feed compositions containing 2-(α-pyridyl)-Δ^2 -heterocyclic compounds” (SmithKline Beckman Corporation, priority 1985, dated 1987).

Test system: fermentation in the digestive tract (swine ileal/cecal inoculum)
Test: In vitro swine procedure (fistula test; incubation of filtered ileal/cecal inoculum)
Set-up: species or system swine (Yorkshire barrow)
Conditions: 166.67 ppm, 5 hours at 37°

CC1(C)NN=C(c2ccccn2)N1 [5,5-Dimethyl-3-(2'-pyridyl)-4,5-dihydro-1H-triazole]
LYS (lysine): 97 % of control values
